The assay relates to histamine. In words: Histamine assay in serum (o-phthalaldehyde spectrofluorometric procedure). The format is in vivo. The settings on record: ketotifen in compound 48/80 treated mice.

Experimental findings from patent US20170112714A1, “METHOD FOR ALLEVIATING OR TREATING ANAPHYLAXIS” (Korea Bio Medical Science Institute, priority 2015, published 2017) are described below.

Consider `CN1CCC(=C2c3ccccc3CC(=O)c3sccc32)CC1` [ketotifen], for which the histamine entry was “significantly reduced”.
